Reference: ChEMBL document CHEMBL6087474, “Discovery of an Efficacious RET PROTAC Degrader with Enhanced Antiproliferative Activity against Resistant Cancer Cells Harboring RET Solvent-Front Mutations” (J Med Chem, 2025)

Key:
Assay type in all cases: cell-based
BaF3 [1] = assay: PROTAC activity at CRBN/KIF5B-RET (unknown origin) expressed in mouse BaF3 cells assessed as induction of RET degradation by measuring fold change at 11.1 nM measured after 6 hrs by Western blot analysis; conditions: Homo sapiens
BaF3 [2] = assay: PROTAC activity at CRBN/KIF5B-RET (unknown origin) expressed in mouse BaF3 cells assessed as induction of RET degradation by measuring fold change at 300 nM measured after 6 hrs by Western blot analysis; conditions: Homo sapiens
BaF3 [3] = assay: PROTAC activity at CRBN/KIF5B-RET (unknown origin) expressed in mouse BaF3 cells assessed as induction of RET degradation by measuring fold change at 900 nM measured after 6 hrs by Western blot analysis; conditions: Homo sapiens
BaF3 [4] = assay: PROTAC activity at CRBN/KIF5B-RET (unknown origin) expressed in mouse BaF3 cells assessed as induction of RET degradation measured after 6 hrs by Western blot analysis; conditions: Homo sapiens
BaF3 [5] = assay: PROTAC activity at CRBN/KIF5B-RET (unknown origin) expressed in mouse BaF3 cells assessed as induction of RET degradation by measuring fold change at 30 nM measured after 0.5 hrs by Western blot analysis; conditions: Homo sapiens
BaF3 [6] = assay: PROTAC activity at CRBN/KIF5B-RET (unknown origin) expressed in mouse BaF3 cells assessed as induction of RET degradation by measuring fold change at 30 nM measured after 2 hrs by Western blot analysis; conditions: Homo sapiens
BaF3 [7] = assay: PROTAC activity at CRBN/KIF5B-RET (unknown origin) expressed in mouse BaF3 cells assessed as induction of RET degradation by measuring fold change at 30 nM measured after 12 hrs by Western blot analysis; conditions: Homo sapiens
BaF3 [8] = assay: PROTAC activity at CRBN/KIF5B-RET (unknown origin) expressed in mouse BaF3 cells assessed as induction of RET degradation by measuring fold change at 30 nM measured after 1 hrs in presence of cycloheximide by Western blot analysis; conditions: Homo sapiens
BaF3 [9] = assay: PROTAC activity at CRBN/KIF5B-RET (unknown origin) expressed in mouse BaF3 cells assessed as induction of RET degradation by measuring fold change at 30 nM measured after 4 hrs in presence of cycloheximide by Western blot analysis; conditions: Homo sapiens
BaF3 [10] = assay: PROTAC activity at CRBN/KIF5B-RET (unknown origin) expressed in mouse BaF3 cells assessed as induction of RET degradation by measuring fold change at 30 nM measured after 8 hrs in presence of cycloheximide by Western blot analysis; conditions: Homo sapiens
BaF3 [11] = assay: PROTAC activity at CRBN/KIF5B-RET (unknown origin) expressed in mouse BaF3 cells assessed as induction of RET degradation by measuring fold change at 30 nM measured after 12 hrs in presence of cycloheximide by Western blot analysis; conditions: Homo sapiens
BaF3 [12] = assay: PROTAC activity at CRBN/KIF5B-RET (unknown origin) expressed in mouse BaF3 cells assessed as induction of RET degradation by measuring fold change at 30 nM preincubated with compound for 2 hrs followed by compound washout and measured after 1 hrs by Western blot analysis; conditions: Homo sapiens
BaF3 [13] = assay: PROTAC activity at CRBN/KIF5B-RET (unknown origin) expressed in mouse BaF3 cells assessed as induction of RET degradation by measuring fold change at 30 nM preincubated with compound for 2 hrs followed by compound washout and measured after 2 hrs by Western blot analysis; conditions: Homo sapiens
BaF3 [14] = assay: PROTAC activity at CRBN/KIF5B-RET (unknown origin) expressed in mouse BaF3 cells assessed as induction of RET degradation by measuring fold change at 30 nM preincubated with compound for 2 hrs followed by compound washout and measured after 12 hrs by Western blot analysis; conditions: Homo sapiens
BaF3 [15] = assay: PROTAC activity at CRBN/KIF5B-RET (unknown origin) expressed in mouse BaF3 cells assessed as induction of RET degradation by measuring fold change at 30 nM preincubated with MLN4924 for 2 hrs followed by compound addition and measured after 6 hrs by Western blot analysis; conditions: Homo sapiens
BaF3 [16] = assay: PROTAC activity at CRBN/KIF5B-RET (unknown origin) expressed in mouse BaF3 cells assessed as induction of RET degradation by measuring fold change at 10 nM measured after 6 hrs by Western blot analysis; conditions: Homo sapiens
BaF3 [17] = assay: PROTAC activity at CRBN/KIF5B-RET (unknown origin) expressed in mouse BaF3 cells assessed as induction of RET degradation by measuring fold change at 1000 nM measured after 6 hrs by Western blot analysis
BaF3 [18] = assay: Inhibition of RET (unknown origin) phosphorylation in mouse BaF3 cells stably expressing wildtype KIF5B-RET fusion protein assessed as fold change in phosphorylated RET protein level at 11.1 nM measured after 6 hrs by Western blot analysis; conditions: Homo sapiens
BaF3 [19] = assay: Inhibition of RET (unknown origin) phosphorylation in mouse BaF3 cells stably expressing wildtype KIF5B-RET fusion protein assessed as fold change in phosphorylated RET protein level at 33.3 nM measured after 6 hrs by Western blot analysis; conditions: Homo sapiens
BaF3 [20] = assay: Inhibition of RET (unknown origin) phosphorylation in mouse BaF3 cells stably expressing wildtype KIF5B-RET fusion protein assessed as fold change in phosphorylated RET protein level at 100 nM measured after 6 hrs by Western blot analysis; conditions: Homo sapiens
BaF3 [21] = assay: Inhibition of Shc (unknown origin) phosphorylation in mouse BaF3 cells stably expression wildtype KIF5B-RET assessed as fold change in phosphorylated Shc protein level at 33.3 nM measured after 6 hrs by Western blot analysis; conditions: Homo sapiens
BaF3 [22] = assay: Inhibition of RET (unknown origin) phosphorylation in mouse BaF3 cells stably expressing KIF5B-RET-V804M mutant assessed as fold change in phosphorylated RET protein level at 33.3 nM measured after 6 hrs by Western blot analysis; conditions: Homo sapiens
BaF3 [23] = assay: Inhibition of RET (unknown origin) phosphorylation in mouse BaF3 cells stably expressing KIF5B-RET-V804M mutant assessed as fold change in phosphorylated RET protein level at 100 nM measured after 6 hrs by Western blot analysis; conditions: Homo sapiens
BaF3 [24] = assay: Inhibition of Shc (unknown origin) phosphorylation in mouse BaF3 cells stably expression KIF5B-RET V804M mutant assessed as fold change in phosphorylated Shc protein level at 300 nM measured after 6 hrs by Western blot analysis; conditions: Homo sapiens
BaF3 [25] = assay: Inhibition of RET (unknown origin) phosphorylation in mouse BaF3 cells stably expressing KIF5B-RET-G810C mutant assessed as fold change in phosphorylated RET protein level at 300 nM measured after 6 hrs by Western blot analysis; conditions: Homo sapiens
BaF3 [26] = assay: Inhibition of Shc (unknown origin) phosphorylation in mouse BaF3 cells stably expression KIF5B-RET G810C mutant assessed as fold change in phosphorylated Shc protein level at 300 nM measured after 6 hrs by Western blot analysis; conditions: Homo sapiens
BaF3 [27] = assay: Inhibition of RET (unknown origin) phosphorylation in mouse BaF3 cells stably expressing KIF5B-RET-G810R mutant assessed as fold change in phosphorylated RET protein level at 100 nM measured after 6 hrs by Western blot analysis; conditions: Homo sapiens
BaF3 [28] = assay: Inhibition of RET (unknown origin) phosphorylation in mouse BaF3 cells stably expressing KIF5B-RET-G810R mutant assessed as fold change in phosphorylated RET protein level at 300 nM measured after 6 hrs by Western blot analysis; conditions: Homo sapiens

COc1ccc(CN2C3CC2CN(c2ccc(-c4cc(-c5cnn(C6CCN(CCCCCC#Cc7cccc8c7CN(C7CCC(=O)NC7=O)C8=O)CC6)c5)cn5ncc(C#N)c45)cn2)C3)cn1 (stereo not drawn)
fold change (FC) (BaF3 [1]): 0.4
fold change (FC) (BaF3 [2]): 0.2
fold change (FC) (BaF3 [3]): 0.2
Activity (BaF3 [4]): Dose-dependent-effect
fold change (FC) (BaF3 [5]): 0.7
fold change (FC) (BaF3 [6]): 0.4
fold change (FC) (BaF3 [7]): 0.5
fold change (FC) (BaF3 [8]): 0.4
fold change (FC) (BaF3 [9]): 0.3
fold change (FC) (BaF3 [10]): 0.3
fold change (FC) (BaF3 [11]): 0.4
fold change (FC) (BaF3 [12]): 0.6
fold change (FC) (BaF3 [13]): 0.7
fold change (FC) (BaF3 [14]): 0.9
fold change (FC) (BaF3 [15]): 0.7
fold change (FC) (BaF3 [16]): 0.5
fold change (FC) (BaF3 [17]): 0.2
fold change (FC) (BaF3 [18]): 0.5
fold change (FC) (BaF3 [19]): 0.3
fold change (FC) (BaF3 [20]): 0.3
fold change (FC) (BaF3 [21]): 0.7
fold change (FC) (BaF3 [22]): 0.3
fold change (FC) (BaF3 [23]): 0.1
fold change (FC) (BaF3 [24]): 0.3
fold change (FC) (BaF3 [25]): 0.2
fold change (FC) (BaF3 [26]): 0.2
fold change (FC) (BaF3 [27]): 0.9
fold change (FC) (BaF3 [28]): 0.6
